Bioassay records (PubChem)
G9a block: inhibitors of human histone lysine methyltransferase G9a | Potency, µM (top dose mostly 102 µM), for the others: at the highest dose activity, negative = inhibition, most hits filed as inhibitors | actives 8.8% (n = 350,000) | G9a H3K9 monomethylation, AlphaScreen, 2 h | Q96KQ7; further: potency means the concentration at half of the fitted maximal effect; on the % scale 0 is the no-effect control and ±100 the full control effect; nearly all actives have a fitted effect of over 75% in size
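Compounds were preincubated with 20 nM G9a for 15 min, after which biotinylated H3K9 peptide (500 nM) and SAM (20 uM) started a 2 h room-temperature reaction. Monomethylated product was quantified by antibody-based AlphaScreen chemiluminescence.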
ALDH1A1 inh: blocks purified human ALDH1A1 activity | AID 1030 | P00352 | actives 7.3% (n = 220,000) | Potency, µM (titrated, usually from 75.3 µM), for the others: at the highest dose activity, negative = inhibition, hits mostly inhibitors | Purified ALDH1A1, NADH fluorescence, propionaldehyde substrate; active means well fitted inhibition curve with a large enough effect, not every such curve was filed as active; inconclusive means small, poorly fitted or top-dose-only effect, or another doubt; inactive means no such curve, though single readings can be large or run the other way;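 further: potency means the concentration at half of the fitted maximal effect; plate controls were no enzyme wells and a reference inhibitor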
KDM4E inh: JMJD2E (human) inhibition; Potency, µM (highest dose often 57.1 µM), without a hit: top-dose activity change, negative = inhibition, most hits filed as inhibitors; JMJD2E catalytic domain, FDH-coupled NADH fluorescence (FDH is formaldehyde dehydrogenase); actives 1.6% (n = 230,000); B2RXH2; active means well fitted inhibition curve with a large enough effect, not every such curve was filed as active; inconclusive means small, poorly fitted or top-dose-only effect, or another doubt; inactive means no such curve, though single readings can be large or run the other way;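 further: potency means the concentration at half of the fitted maximal effect; 0% = wells with enzyme and -100% = buffer wells without enzyme; nearly all actives have a fitted effect of over 50% in size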
Lamin A splicing: LMNA splicing modulation; HeLa LMNA splicing GFP/RFP minigene ratio, 48 h; Potency, µM (doses to about 46.1 µM), for inactives: at the top dose ratio change, negative = inhibition, usual class: inhibitors; actives 0.01% (n = 200,000); active means well fitted inhibition curve with a large enough effect in the signal ratio, with a control signal flat, not every such curve was filed as active; inconclusive means small, poorly fitted or top-dose-only effect, or effect the other way, or a change in a side signal; the % refers to the signal ratio; further: potency means the concentration at half of the fitted maximal effect; on the % scale 0 is the no-effect control and ±100 the full control effect
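S3 HeLa cells stably expressing lamin A-EGFP splicing minigene plus DsRed2, 600 cells/well, 48 h compound exposure at 37C. Laser-scanning cytometry; analysed as GFP (500-530 nm)/RFP (575-640 nm) total intensity ratio; 0.5% DMSO vehicle.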
Sfp PPTase inh: qHTS Assay for Inhibitors of Bacillus subtilis Sfp phosphopantetheinyl transferase (PPTase); 4'-phosphopantetheinyl transferase ffp (Bacillus subtilis), Q9F4F7; Biochemical Sfp PPTase activity, qHTS; Potency, µM, for inactives: max response, negative = inhibition, most hits filed as inhibitors; hit rate 3.5% among 310,000; AID 1490, 2009; active = well fitted inhibition curve with a large enough effect; inconclusive = small, poorly fitted or top-dose-only effect, or another doubt; inactive = no such curve, though single readings can be large or run the other way;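 also: the enzyme is Sfp with the accession as filed and its product quenches rhodamine fluorescence; potency is read from the fitted curve at half-maximal effect; 0% = enzyme reaction without inhibitor and -100% = no enzyme wells; top concentration of the series not given in the record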
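Step 1, compound plus 15 nM Sfp-PPTase, 15 min, room temperature. Step 2, add rhodamine-CoA (5 uM) and BHQ-2-YbbR (12.5 uM). Step 3, read 525/598 nm fluorescence at 0 and 30 min.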
miR-21 reporter: miR-21 reporter, rising signal | AID 2288 | HeLa miR-21 FLuc reporter, luciferase, 48 h | 340,000 tested, under 10 active | Potency, µM (doses to about 38.3 µM), for inactives: at the top dose reporter change, positive = more light; active = well fitted rising curve with a large enough effect; inconclusive = small, poorly fitted or top-dose-only effect; inactive = no such curve, though single readings can be large or run the other way;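 note: % of control where 0% means no effect; miR-21 action dims this reporter so a rising signal means less miR-21 action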
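HeLa cells stably expressing CMV-driven firefly luciferase with a downstream miR-21 binding sequence, endogenously expressing miR-21, were treated with titrations (up to about 40uM final) for 48 hours at 37 degree Celsius. Luciferase luminescence was read after lysis.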
Active calls of the source: *; ? = inconclusive; . = not tested or not shown; [ ] = dose if it differs, or a comment. Rows were chosen to be rich in hits. Some 13% of all compounds tested hit in one or more screens of this group. Unless noted, the call rests on the fitted dose curve; in most records, active means well fitted curve in the direction sought with a large enough effect; inconclusive means small, poorly fitted or top-dose-only effect, or another doubt; inactive means no such curve, though single readings can be large; an effect the other way counts as inactive or inconclusive.

SMILES	G9a block	ALDH1A1 inh	KDM4E inh	Lamin A splicing	Sfp PPTase inh	miR-21 reporter
COc1cccc2cc(C(=O)C3=C(O)C(=O)N(CCN4CCOCC4)C3c3ccc(Cl)cc3)oc12 (stereo not drawn)	.	.	?	.	3%	2%
Cc1ccc(C2C(C(=O)c3cc4ccccc4o3)=C(O)C(=O)N2CCN2CCOCC2)cc1 (stereo not drawn)	40µM*	.	.	.	6%	-10%
O=C(C1=C(O)C(=O)N(CCN2CCOCC2)C1c1ccc(Br)cc1)c1cc2ccccc2o1 (stereo not drawn)	?	.	.	.	7%	-5%
COc1cccc2cc(C(=O)C3=C(O)C(=O)N(CCN4CCOCC4)C3c3ccc(C(C)(C)C)cc3)oc12 (stereo not drawn)	32µM*	.	.	.	2%	-3%
COc1cc(C2C(C(=O)c3cc4ccccc4o3)=C(O)C(=O)N2CCN2CCOCC2)ccc1OCCC(C)C (stereo not drawn)	.	.	.	.	-11%	-9%
Cc1ccc(Nc2cc(C(=O)NCCc3ccccc3)c3ccccc3n2)c(C)c1	-19%[59 µM]	.	.	.	.	5%
CCn1c(C(=O)Nc2ccc(C)cc2C)cc2sc(Cl)cc21	13%[59 µM]	.	.	.	.	-7%
O=C(C1=C(O)C(=O)N(CCN2CCOCC2)C1c1cccc(O)c1)c1cc2ccccc2o1 (stereo not drawn)	50µM*	.	.	.	12%	-2%
COc1ccccc1Oc1nc2c(c(=O)n(Cc3ccccc3F)c(=O)n2C)n1C	?	8.9µM*	-22%	3%	8.9µM*	1%
Cn1c(NCCCO)nc2c1c(=O)n(Cc1ccccc1F)c(=O)n2C	39%[12.7 µM]	1%	-1%	-12%	14%	-5%
Cn1c(=O)n(Cc2ccccc2F)c(=O)c2c1nc1n2CCN1Cc1ccco1	-35%	7.9µM*	-1%	.	8%	1%
Nc1ccc2oc(Cc3ccc(Cl)cc3)nc2c1	13µM*	.	.	.	.	-3%
O=[N+]([O-])c1ccc(O)c(C=Nc2ccc3oc(Cc4ccc(Cl)cc4)nc3c2)c1	28µM*	?	?	-7%[46 µM]	28µM*	1%
COC1CCN(C(=O)c2ccc3oc(Cc4ccc(Cl)cc4)nc3c2)CC1	19%	.	.	.	20%	-3%
CCOC(=O)N1CCN(c2ccc([N+](=O)[O-])cc2)CC1	10%[59 µM]	?	-3%	?	1%	-4%
CSC(=NC#N)N1CCN(c2ccc([N+](=O)[O-])cc2)CC1	7%[59 µM]	18µM*	-20%	.	-10%	0%
CSC(=NC#N)N1CCN(C(=NC#N)SC)CC1	12%[59 µM]	?	?	.	-1%	2%
CSC(=NC#N)N1CCN(c2ccccn2)CC1	-3%	18µM*	-2%	.	10%	-15%
CN(Cc1ccco1)c1ncncc1-c1ccc2c(c1)OCO2	-3%[0.501 µM]	2%	.	6%	?	.
O=C(Nc1ccon1)Nc1cccc(Cl)c1Cl	91%	.	.	.	12%	-14%
Cc1ccc(-c2c(C(=O)O)c(C(=O)O)c3n2CCC3)cc1	?	7%	?	5%[46 µM]	15%	-5%
COC(=O)c1c(C(=O)OC)c(-c2ccc(Cl)c(Cl)c2)n2c1CCC2	50µM*	?	-25%	?	-5%	-1%
O=C(O)c1c(C(=O)O)c(-c2ccc(Cl)c(Cl)c2)n2c1CSC2	45µM*	.	.	.	1%	0%
CCOc1ccc(C(=O)NCC(c2ccc3c(c2)OCO3)N2CCN(C)CC2)cc1 (stereo not drawn)	7%[59 µM]	.	.	?	.	-4%
O=C(NCC1OCCc2ccccc21)c1ccco1 (stereo not drawn)	?	7.9µM*	-8%	-1%	-25%	-21%

The list goes on (5 carried over from the part before).
SMILES	G9a block	ALDH1A1 inh	KDM4E inh	Lamin A splicing	Sfp PPTase inh	miR-21 reporter
Cc1ccc(-c2c(C(=O)O)c(C(=O)O)c3n2CCC3)cc1	?	7%	?	5%[46 µM]	15%	-5%
COC(=O)c1c(C(=O)OC)c(-c2ccc(Cl)c(Cl)c2)n2c1CCC2	50µM*	?	-25%	?	-5%	-1%
O=C(O)c1c(C(=O)O)c(-c2ccc(Cl)c(Cl)c2)n2c1CSC2	45µM*	.	.	.	1%	0%
CCOc1ccc(C(=O)NCC(c2ccc3c(c2)OCO3)N2CCN(C)CC2)cc1 (stereo not drawn)	7%[59 µM]	.	.	?	.	-4%
O=C(NCC1OCCc2ccccc21)c1ccco1 (stereo not drawn)	?	7.9µM*	-8%	-1%	-25%	-21%
Cc1ccc(CN(C)C(=O)C2CCC(=O)N(CCc3ccccc3)C2)o1 (stereo not drawn)	9%[12.7 µM]	.	.	.	35µM*	-34%
Cc1ccc(CCNC(=O)C2CCC(=O)N(Cc3ccccc3F)C2)o1 (stereo not drawn)	79µM*	.	.	.	-21%	-51%
COc1cccc(CN2CC(C(=O)NCc3cccc(N4CCCC4)c3)CCC2=O)c1 (stereo not drawn)	79µM*	.	.	.	12%	-1%
COc1cccc(CN2CC(C(=O)NCc3cccc(Cl)c3)CCC2=O)c1 (stereo not drawn)	.	.	.	.	5%	-3%
CN(Cc1cnccn1)C(=O)C1CCC(=O)N(CCc2ccccc2)C1 (stereo not drawn)	-1%	.	.	.	10%	-3%
Cc1cc(C)nc(CCNC(=O)C2CCC(=O)N(Cc3ccccc3F)C2)n1 (stereo not drawn)	.	.	.	.	12%	0%
COc1cccc(CN2CC(C(=O)NCCc3ccc(C)o3)CCC2=O)c1 (stereo not drawn)	40µM*	.	.	.	?	-3%
CCN1c2ccccc2-c2nc(SCC(=O)NCc3ccccc3)ncc2S1(=O)=O	1%[59 µM]	.	.	.	.	15%
CC1=C(C(=O)Nc2ccccc2)C(c2sccc2C)n2nnnc2N1 (stereo not drawn)	?	0.35µM*	8%	-4%	3%	-5%
COC(=O)C1=C(C)Nc2nnnn2C1c1cc(OC)ccc1OC (stereo not drawn)	?	2%	-6%	9%	2%	-3%
C=CCOC(=O)C1=C(C)Nc2nnnn2C1c1cccs1 (stereo not drawn)	17%[59 µM]	6.3µM*	2%	-2%	11%	-2%
C=CCOC(=O)C1=C(C)Nc2nnnn2C1c1ccc(OC)cc1OC (stereo not drawn)	-11%[59 µM]	?	-7%	4%	11%	-7%
